Test results from publication PMC9331716, “Nucleoside Transport and Nucleobase Uptake Null Mutants in Leishmania mexicana for the Routine Expression and Characterization of Purine and Pyrimidine Transporters” (International Journal of Molecular Sciences, 2022).

Tested on: Nc1ncnc2c1ncn2[C@@H]1O[C@H](CO)[C@@H](O)[C@H]1O
Test: cells, lysate or membranes
Conditions: other: TvagENT3 in SUPKO, 50 nM [^3H]-adenosine, n = 3

## TvagENT3 (Trichomonas vaginalis G3)
  Km: 0.90 ± 0.13 µM
